# “Also recorded” adds a separate entry of the source.
# Legend:
# Type in all cases: in vivo, human
# IL-6 receptor = assay: IFN-β therapy of MS patients: IL-6R expression in CD3+ T cells (flow cytometry); conditions: IFN-β-treated MS patients, similar to healthy controls
# Description: (§1) A) Treg-depleted PBMC from therapy-naive (red), IFN-β-treated MS patients (blue) or HC (black) were cocultured with allogeneic Treg and stimulated with anti-CD3 mAb. T cell proliferation was determined by ^3H-Tdr incorporation on day three. Box plots show percentage of suppression in presence of Treg (ratio 1:1) normalized to proliferation of PBMC alone as median with interquartile range (n=15), p-values relative to suppression of HC or therapy-naïve MS, to avoid familywise error rate bonferroni correction was used indicated as (p*). B) PKB/c-Akt phosphorylation was determined by flow cytometry within CD3+ T cells from therapy-naive (red), IFN-β-treated MS patients (blue) or HC (black). […] C) IL-6R expression within PBMC from HC (black), therapy-naive (red), or IFN-β-treated (blue) MS patients was determined by flow cytometry. […]
# (§2) Flow cytometric analysis was performed using the following antibodies: anti-human CD3 (UCHT1), anti-human CD4 (RPA-T4), anti-human CD8 (SK1), anti-human CD14 (M5E2), anti-human CD19 (HIB19), all from BD Pharmingen, anti-human CD25 (4E3), anti-human CD127 (MB15-18C9), all from Miltenyi Biotec. […] Cell viability during flow cytometric analysis was determined using 7-AAD and eFluor506 (eBioscience). […] Stained cells were measured on LSRII with FACS Diva Software (BD Bioscience) or FACSVia™ and data was analyzed with BD FACSVia Research Software (BD Biosciences). […]
# PKB/c-Akt = assay: IFN-β therapy of MS patients: PKB/c-Akt phosphorylation in CD3+ T cells (flow cytometry); conditions: IFN-β-treated MS patients, similar to healthy controls
# Description: as §1, §2
# T cells from MS patients = assay: IFN-β therapy of MS patients: Treg-mediated suppression of patients' T cells (3H-Tdr); conditions: IFN-β-treated MS patients vs therapy-naive MS and HC
# Description: as §1, with “(black). Grey histogram depicts isotypic control of MS.” for “(black).”, “cytometry. Box plots show percentage of IL-6R^+ cells within CD3^+ T cells of six independent donors, p-values relative to IL-6R expression of therapy-naïve MS or HC are shown.” for “cytometry.”
# CD4^+CD25^− T cells (10^5 cells/well, 96 well plate, flat bottom) were stimulated with 0.1 μg/ml anti-CD3 mAb (OKT-3) and cultured in presence or absence of different Treg ratios. […] T cell proliferation was measured by ^3H-Tdr incorporation using a liquid […] counter. […]
molecule,measurement,setting,value
"IFN-β: IFN-β therapy of MS patients (protein, UniProt P01574 22-187, looked up) Interferon beta: MSYNLLGFLQRSSNFQCQKLLWQLNGRLEYCLKDRMNFDIPEEIKQLQQFQKEDAALTIYEMLQNIFAIFRQDSSSTGWNETIVENLLANVYHQINHLKTVLEEKLEKEDFTRGKLMSSLHLKRYYGRILHYLKAKEYSHCAWTIVRVEILRNFYFINRLTGYLRN",IL-6 receptor expression,IL-6 receptor,normalization
same,PKB activity,PKB/c-Akt,normalization
same,susceptibility of CD4+ T cells towards Treg-mediated immunoregulation,T cells from MS patients,improves responsiveness of T cells; also recorded: restores susceptibility of CD4+ T cells towards Treg-mediated immunoregulation
